# Source: PMC7579840 (Journal of medicinal chemistry, 2019)
# Tests used:
# Format in all cases: cell-based
# [1] = test system: MCF10A cells; assay: Cell viability assay, MCF10A; settings: MCF10A vs MCF7 (Figure S4)
# [2] = test system: STAT3-Tyr705 phosphorylation in 786-O cells; assay: STAT3 activation, Western Blot of STAT3-Tyr705 phosphorylation; settings: Homo sapiens, 786-0, read-out: EC50, inhibition of STAT3 activation
# [3] = test system: Akt1 (Ser129) phosphorylation in 786-O cells; assay: CK2 inhibition in cells, Western Blot of Phospho-Akt1; settings: Homo sapiens, 786-0, 24 h, read-out: IC50 cellular CK2
# [4] = test system: 786-O cells; assay: Cell viability assay; settings: Homo sapiens, 786-0
structure (smiles),measurement,setting,value
"O=C(O)c1ccc2c(c1)nc(Nc1cccc(Cl)c1)c1ccncc12 [CX-4945, 5-(3-chlorophenylamino)benzo[c][2,6]naphthyridine-8-carboxylic acid]",times stronger cell growth inhibition of MCF10A than of MCF7,[1],5 times
same,EC50,[2],5.3 µM
same,IC50,[3],~1 µM
same,GI50,[4],6 µM
